For orientation: Ki means the equilibrium dissociation constant of an inhibitor or competing ligand from its target. Higher therefore signals weaker binding.

Amino acid sequences for entries named in this document (tags omitted). A change or cut given only in a name is not applied to a line headed by its entry.
UniProt P41146: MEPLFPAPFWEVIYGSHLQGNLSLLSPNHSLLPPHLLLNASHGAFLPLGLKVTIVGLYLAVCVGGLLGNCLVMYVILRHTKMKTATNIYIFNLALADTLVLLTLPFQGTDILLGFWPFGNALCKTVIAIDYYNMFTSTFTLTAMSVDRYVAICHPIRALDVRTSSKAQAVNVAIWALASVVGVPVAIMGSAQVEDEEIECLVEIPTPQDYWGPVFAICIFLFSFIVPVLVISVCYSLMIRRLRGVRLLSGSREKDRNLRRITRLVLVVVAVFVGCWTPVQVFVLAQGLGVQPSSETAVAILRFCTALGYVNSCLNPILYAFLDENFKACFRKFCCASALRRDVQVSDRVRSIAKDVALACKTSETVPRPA

The results in this text go back to ChEMBL document CHEMBL1133540, “4-Aminoquinolines: novel nociceptin antagonists with analgesic activity” (J Med Chem, 2000).

The target of this experiment is Nociceptin receptor (Homo sapiens, UniProt P41146). Description: Ability to displace [3H]nociceptin ( 0.5 nM ) binding from Opioid receptor like 1 expressed in HeLa cells. In kind it is cell-based. The essentials:
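Membranes from HeLa cells expressing human ORL1 (25 μg protein/mL) in 50 mM Tris pH 8.5 with 2 mM EDTA, 0.1 mM p-aminophenylmethanesulfonyl fluoride and 2 mg/mL BSA. Incubated 30 min at room temperature with 0.5 nM [3H]nociceptin and varied compound concentrations. Bound radioactivity was collected by filtration and counted by scintillation. Nonspecific binding was set with 1 μM unlabeled nociceptin. Ki reported as mean ± SE, n=3-6.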
In the case of `COc1ccc(OCc2ccccc2C(=O)Nc2ccc3nc(C)cc(N)c3c2)cc1`, the affinity, expressed as Ki, was 11.8 nM.
Take `Cc1cc(N)c2cc(NC(=O)c3ccccc3COc3ccccc3Cl)ccc2n1`: the affinity, expressed as Ki, was 13.2 nM.
Consider `Cc1cc(N)c2cc(NC(=O)c3ccccc3COc3ccc([N+](=O)[O-])cc3)ccc2n1`, for which the affinity, expressed as Ki, was 2.3 nM.
